Results reported in patent US10878939B2, “Methods and compositions for personalized pain management” (Children's Hospital Medical Center, priority 2014, dated 2020).

Tested on: children undergoing tonsillectomy
Assay: Respiratory depression and prolonged PACU stay due to RD by ABCB1 genotype (Example 7)
Details: Whites, ABCB1 rs9282564 AA, N=171

CN1CC[C@]23c4c5ccc(O)c4O[C@H]2[C@@H](O)C=C[C@H]3[C@H]1C5 [morphine]
RD %: 16%
